Results: patent US20240245647A1, “ISOMEROHYDROLASE INHIBITOR FOR TREATMENT OF ATROPHIC FORM OF AGE-RELATED MACULAR DEGENERATION AND STARGARDT DISEASE” (The Trustees of Columbia University in the City of New York, priority 2021, published 2024)
pIC50: −log10 of the molar value.

Protein sequences, listed by entry. Tags and fused reporters are not part of them.
UniProt Q28175, whole entry: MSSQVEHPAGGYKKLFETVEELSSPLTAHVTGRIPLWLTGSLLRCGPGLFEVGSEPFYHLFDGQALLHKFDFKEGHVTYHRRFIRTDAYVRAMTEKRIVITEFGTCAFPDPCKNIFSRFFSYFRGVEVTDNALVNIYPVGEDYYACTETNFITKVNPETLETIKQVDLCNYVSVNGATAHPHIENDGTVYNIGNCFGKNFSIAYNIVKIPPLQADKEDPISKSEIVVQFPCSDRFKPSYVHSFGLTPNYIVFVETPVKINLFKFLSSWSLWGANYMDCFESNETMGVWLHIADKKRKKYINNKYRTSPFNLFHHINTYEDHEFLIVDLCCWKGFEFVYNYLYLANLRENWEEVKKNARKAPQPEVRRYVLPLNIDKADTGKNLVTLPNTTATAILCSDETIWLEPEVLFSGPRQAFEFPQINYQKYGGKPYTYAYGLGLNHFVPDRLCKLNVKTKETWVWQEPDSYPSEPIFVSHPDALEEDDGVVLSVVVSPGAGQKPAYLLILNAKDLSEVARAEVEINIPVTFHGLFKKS

Columns and labels:
VAP-1 = VAP-1 stability in dog plasma
RPE65 = RPE65 (Bos taurus, UniProt Q28175); experiment: In vitro retinol isomerase (isomerohydrolase, IMH) assay with bovine RPE microsomes
[1] = Sequestration of all-trans-retinal (atRAL) in vitro; conditions: 100 μM compound, equimolar atRAL, 30 min

dog plasma stability, in words (VAP-1): increased dog plasma stability | RPE65 inhibition, in words (RPE65): effectively inhibit | pIC50 (RPE65; read-out: IC50 in the primary IMH / RPE65 inhibition assay): 7.22
SMILES: [2H]C([2H])(N)C([2H])([2H])S(=N)(=O)c1cccc(OCC2CCCCC2)c1 (stereo not shown)
atRAL reduction [1]: 87%
